Target: Bfl-1 (c-myc-tagged, without the C-terminal trans-membrane region) (human)
Experiment: fluorescence polarisation

Kd: 250 nM
Substance: Bim_A2eT_E2gG, N-terminal fluorescein (peptide)

— publication PMC4168798
